Source: paper PMC3615554 (Journal of biomolecular screening, 2012)

Key:
[1] = test system: A549 cells (wild type EGFR); experiment: Alamar Blue viability assay, A549; type: cell-based
[2] = test system: EGFR activation (granule formation) in A549-EGFRB cells; experiment: EGFRB assay, granule count readout; type: cell-based

Question: How did the “Alamar Blue viability assay IC50 A549” value [1] turn out when `COc1cc2ncnc(Nc3ccc(F)c(Cl)c3)c2cc1OCCCN1CCOCC1` [Gefitinib, gefitinib] was run?
Answer: inactive

Question: And the Average granule count [2]?
Answer: 507
